21 molecules from PubChem BioAssay (Tox21) can be followed below.

The structures appear in SMILES notation. Only a part is listed here, and it is no random draw. Results filed as inconclusive are left out. Activity calls are given as the source filed them. Calls come from the whole dose curve.
% is set by controls: 0 for no effect and ±100 for the full control effect; potency is the fitted concentration of half-maximal effect.

A short description of this assay: qHTS assay to identify small molecule agonists of the endoplasmic reticulum stress response signaling pathway - cell viability counter screen (AID 1159517). Note: nearly all actives have a fitted effect of over 50% in size. To be noted: ESRE-bla HeLa viability, CellTiter-Glo luminescence, 5 h; series mostly up to 61 µM; activity change, negative = cytotoxicity: at the top concentration. The source says:
U.S. Tox21 Program National Center for Advancing Translational Sciences [NCATS] NIH Chemical Genomics Center [NCGC] U.S. Environmental Protection Agency [EPA] National Institutes of Environmental Health Sciences [NIEHS] National Toxicology Program [NTP] U.S. Food and Drug Administration [FDA] Tox21 Assay Overview: Endoplasmic Reticulum (ER) plays an important role in cellular signaling, protein folding/maturation, stress response, lipid biosynthesis, calcium storage and release etc. Under stress conditions, proteins in ER misfold or unfold, and leading to the expression of ER stress responsive genes. ER stress has been associated with a variety of pathophysiological conditions such as cancer, inflammation, neurodegenerative diseases, diabetes, ischemic heart disease etc. To identify the compounds that induce ER stress response, an ER stress reporter cell line, CellSensor ESRE-bla HeLa (Life Technologies, Carlsbad, CA) containing a beta-lactamase reporter gene under control of the Endoplasmic reticulum Stress Response Element (ESRE) was used to screen Tox21 10K compound library. The cytotoxicity of the Tox21 compound library against the ESRE-bla HeLa cell line was tested in parallel by measuring cell viability using the CellTiter-Glo assay in the same wells.
Tox21 Assay Protocol Summary: ESRE-bla HeLa cells were dispensed at 1,500 cells/6 uL of assay medium per well into black wall/clear-bottom 1536-well plates using a Multidrop Combi (ThermoFisher Scientific, Waltham, MA) dispenser. After the assay plates were incubated at 37 C and 5% CO2 for an overnight, 23 nL of compounds dissolved in DMSO, positive controls or DMSO only was transferred to the assay plate by a Pintool station (Kalypsys, San Diego, CA). The assay plates were incubated at 37 C and 5% CO2 for 5 hr. One uL of LiveBLAzer B/G FRET substrate (Life Technologies) was added using a FRD (Flying Reagent Dispenser, Aurora Discovery, San Diego, CA) and the plates were incubated at room temperature for 2 hr. Fluorescence intensity (405 nm excitation, 460 nm and 530 nm emissions) was measured using an Envision plate reader (PerkinElmer, Shelton, CT). For cytotoxicity, 4 ul/well of CellTiter-Glo reagent was added into the assay plates using an FRD. After 30 min incubation at room temperature, the luminescence intensity was measured using a ViewLux plate reader (PerkinElmer).
For orientation: qHTS replaces the single test concentration by a dilution series.
Turning to `COP(=S)(Cl)OC`, the “activity change, negative = cytotoxicity” value is inactive: 3.57% [at 78.8 µM].
In the case of `CCOC(=O)Cl`, the “activity change, negative = cytotoxicity” value is inactive: 5.74%.
For the molecule `O=[As]c1ccccc1` (stereo unspecified), the Potency is active: 549 nM.
Regarding `CCOP(=S)(CC)Sc1ccccc1` (stereo unspecified), the “activity change, negative = cytotoxicity” value is inactive: 5.48%.
Take `CN(C(=O)Cc1cccc2occc12)[C@H]1CC[C@@]2(CCCO2)C[C@@H]1N1CCCC1`: the “activity change, negative = cytotoxicity” value was inactive: -0.442%.
Still for that read-out and setting: the result for `ClP(Cl)c1ccccc1` reads inactive: -4.51%; that for `COC(=O)Cl`, inactive: 3.75%.
Still for that read-out and setting: the result for `O=P(Cl)(Oc1ccccc1)Oc1ccccc1` reads inactive: 2.1%; that for `O=[N+]([O-])c1ccc(S(=O)(=O)O)c([N+](=O)[O-])c1`, inactive: 8.32% [at 78.8 µM]; that for `CC(C)CCCCCCCOP(OCCCCCCCC(C)C)Oc1ccccc1`, inactive: -5.96%.
With `O=[p+]1oc2ccccc2c2ccccc21` (stereo unspecified), the “activity change, negative = cytotoxicity” value was inactive: -0.997%.
On the same count and under the same terms, the result for `CCCCC(CC)CO[P+](=O)OCC(CC)CCCC` (stereo unspecified) reads inactive: 0.422%; that for `CN(C(=O)Cc1ccccc1)[C@H]1CC[C@@]2(CCCO2)C[C@@H]1N1CCCC1`, inactive: -8.25%.
On the same count and under the same terms, the result for `CC(C)OP(=S)(OC(C)C)SCCNS(=O)(=O)c1ccccc1` reads inactive: -4.38%.
For `NC(=O)Nc1ccc([As](=O)(O)O)cc1`, the Potency entry was “inactive”.
For `CCNC(C)Cc1ccc2c(c1)OCO2` (stereo unspecified), the “activity change, negative = cytotoxicity” value is inactive: -16% [at 78.8 µM].
As to `CCCCO[P+](=O)OCCCC`, the Potency result is “inactive”.
With `Cc1cc([N+](=O)[O-])cc([N+](=O)[O-])c1O`, the “activity change, negative = cytotoxicity” value is inactive: -4.74%.
Still for that read-out and setting: the figure for `Cc1cc([N+](=O)[O-])c(O)c([N+](=O)[O-])c1` is inactive: 2.61% [at 78.8 µM]; for `O=P(Cl)(Cl)c1ccccc1` it is inactive: 1.78%.
The same measure, in the same setting: the result for `O=[P+](Oc1ccccc1)Oc1ccccc1` reads inactive: 3.27%.
